Data from patent US10596270B2, “Anti-folate receptor antibody conjugates, compositions comprising anti-folate receptor antibody conjugates, and methods of making and using anti-folate receptor antibody conjugates” (Sutro Biopharma, Inc., priority 2017, dated 2020).
Entries after “also recorded” stand apart in the source; their conditions may differ.

Legend:
Igrov1 cells [1] = experiment: In vitro cell killing (ADCs, free drugs), Igrov1 cells; format: cell-based
A549 cells [2] = experiment: In vitro cell killing (ADCs, free drugs), FolRα-negative A549 cells; format: cell-based; conditions: for EC50 / Span: NK = No Killing
OVCAR3 cells [3] = experiment: In vitro cell killing (ADCs), OVCAR3 cells; format: cell-based, human; conditions: OVCAR3 (FolRα positive), ADC alone; Table 25
Igrov1 cells [4] = experiment: ADC cell killing in presence of excess un-conjugated naked antibody, Igrov1 cells; format: cell-based
OVCAR3 cells [5] = experiment: ADC cell killing in presence of excess un-conjugated naked antibody, OVCAR3 cells; format: cell-based, human; conditions: OVCAR3, + 0.5 uM un-conjugated antibody (1848-H01 for ADC Molecule 4, Mov19 for ADC Molecule 21)
A549 cells [6] = experiment: ADC cell killing in presence of excess un-conjugated naked antibody, A549 cells; format: cell-based; conditions: A549, + 0.5 uM un-conjugated antibody (1848-H01 for ADC Molecule 4, Mov19 for ADC Molecule 21); NK = No Killing
[7] = Drug linkage stability: released free drug in human plasma; format: in vitro ADME; conditions: released free drug quantitated
Excerpt: (§1) Free drug (II) then appears to undergo further metabolism over time.

[8] = Drug linkage stability: released free drug in cynomolgous monkey plasma; format: in vitro ADME, cynomolgus monkey; conditions: released free drug quantitated
Excerpt: as §1

[9] = Pharmacokinetics of ADCs in non-tumor bearing SCID Beige mice; conditions: single 5 mg/kg IV bolus, 21 days
[10] = Igrov1 (FolRα positive), ADC alone, Table 25
[11] = A549 (FolRα negative), ADC alone, Table 25
[12] = Igrov1, + 0.5 uM un-conjugated antibody (1848-H01 for ADC Molecule 4, Mov19 for ADC Molecule 21)

B1: ADC Molecule 21: IMGN853 (mirvetuximab soravtansine) surrogate expressed in CHO cells and conjugated to sulfo-SPDB-DM4 (conjugate, chains of the INN, looked up)
heavy: QVQLVQSGAEVVKPGASVKISCKASGYTFTGYFMNWVKQSPGQSLEWIGRIHPYDGDTFYNQKFQGKATLTVDKSSNTAHMELLSLTSEDFAVYYCTRYDGSRAMDYWGQGTTVTVSSASTKGPSVFPLAPSSKSTSGGTAALGCLVKDYFPEPVTVSWNSGALTSGVHTFPAVLQSSGLYSLSSVVTVPSSSLGTQTYICNVNHKPSNTKVDKKV[human IgG1 Fc left out here]
light: DIVLTQSPLSLAVSLGQPAIISCKASQSVSFAGTSLMHWYHQKPGQQPRLLIYRASNLEAGVPDRFSGSGSKTDFTLTISPVEAEDAATYYCQQSREYPYTFGGGTKLEIKRTVAAPSVFIFPPSDEQLKSGTASVVCLLNNFYPREAKVQWKVDNALQSGNSQESVTEQDSKDSTYSLSSTLTLSKADYEKHKVYACEVTHQGLSSPVTKSFNRGEC
modifications: sulfo-SPDB-DM4 payload
EC50 (Igrov1 cells [1]; [10]): 3.9 nM
Span (Igrov1 cells [1]; [10]): 87%
Span (Igrov1 cells [1]; Igrov1 cells, Table 26): 85%
EC50 (Igrov1 cells [1]; Igrov1 cells, Table 26, * = estimated EC50 based on incomplete titration): ~4.4 nM
EC50 (A549 cells [2]; [11]): 7.4 nM
Span (A549 cells [2]; [11]): 79%
EC50 (A549 cells [2]; A549 cells, Table 26, * = estimated EC50 based on incomplete titration): ~9 nM
Span (A549 cells [2]; A549 cells, Table 26): 71%
cell killing on FolRα negative A549 cells (A549 cells [2]; in words): potent non-specific cell killing was observed; also recorded: cytotoxic activity on both negative- and positive-FolRα cell lines
EC50 (OVCAR3 cells [3]): 7.9 nM
Span (OVCAR3 cells [3]): 100%
shift of EC50 by naked antibody on Igrov1 cells (Igrov1 cells [4]): about 3 fold
EC50 (Igrov1 cells [4]; [12]): ~11 nM
Span (Igrov1 cells [4]; [12]): 80%
EC50 (OVCAR3 cells [5]): 10 nM
Span (OVCAR3 cells [5]): 99%
EC50 (A549 cells [6]): 7 nM
Span (A549 cells [6]): 81%
drug linkage stability in human plasma [7]: rapidly cleaved
drug linkage stability in cyno plasma [8]: rapidly cleaved
AUC(0-all) ± SEM [9]: 447 ± 8 µg·days/mL
AUC(0-∞) [9]: 510 µg·days/mL
C0 [9]: 115 µg/mL
CL [9]: 9.8 mL/day/kg
Cmax ± SE [9]: 113 ± 4 µg/mL
T1/2 [9]: 182 h
VSS [9]: 0.0952 L/kg
